Screens from PubChem BioAssay.
A549 tox = kills or reduces viability of A549 cells in Nrf2 counter-screen | 390,000 tested, 0.16% active | A549 ARE-Fluc cells, CellTiter-Fluor viability, 18-24 h | Potency, µM (titrated, usually from 46 µM), without a hit: at the top dose activity change, negative = cytotoxicity, hits mostly inhibitors; note: potency is the fitted concentration of half-maximal effect; % is set by controls: 0 for no effect and ±100 for the full control effect
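A549 ARE-Fluc cells in 5% FBS OPTI-MEM, 5000 cells/well, rested 2 h then exposed to compounds in concentration-response for 18-24 h at 37 °C. Viability by CellTiter-Fluor fluorescence (Ex 405/Em 525) after 30 min; luciferase luminescence (BugLite, 15 min, RT) read afterwards.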
Nrf2 block = blocks Nrf2 signaling; A549 ARE-Fluc reporter, luciferase luminescence, 18-24 h; Potency, µM (highest dose often 46 µM), inactives show at the top dose activity change, negative = inhibition, actives largely listed as inhibitors; 360,000 tested, 2.1% active; note: potency is the fitted concentration of half-maximal effect; % is set by controls: 0 for no effect and ±100 for the full control effect; nearly all actives have a fitted effect of over 60% in size
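Nrf2 function is reported as luminescence of an ARE-controlled luciferase in A549 cells. Compounds were tested at several concentrations, and a CellTiter-Fluor read on the same wells flagged cytotoxicity.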
Nrf2 ARE act = activators of Nrf2 (ARE) signaling; AREc32 ARE-luciferase reporter (MCF7-derived line), luminescence, 24 h; AID 624171; Potency, µM (series often up to 46.1 µM), inactives show top-dose activation, most hits filed as activators; 410,000 tested, 0.31% active; note: potency is the fitted concentration of half-maximal effect; % of control where 0% means no effect; nearly all actives have a fitted effect of over 65% in size
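Luminescent ARE reporter assay in AREc32_Fluc cells: overnight plating at 37 deg C, 24 hr compound incubation, Steady-Glo added, 30 min RT before reading.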
miR-21 FLuc = miR-21 reporter, rising signal. HeLa miR-21 FLuc reporter, luciferase, 48 h. Potency, µM (titrated, usually from 38.3 µM), without a hit: at the top dose reporter change, positive = more light. 340,000 tested, under 10 active. AID 2288; active = well fitted rising curve with a large enough effect; inconclusive = small, poorly fitted or top-dose-only effect; inactive = no such curve, though single readings can be large or run the other way;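 also: % of control where 0% means no effect; miR-21 action dims this reporter so a rising signal means less miR-21 action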
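Using DMEM plus 10% FBS, HeLa miR-21-FLuc cells are incubated with test compounds (final up to about 40uM) for 48 hours; firefly luciferase signal is then imaged following reagent-mediated lysis.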
TSG101-PTAP inh = blocks PTAP/TSG101 interaction to inhibit HIV-1 budding; 340,000 tested, under 10 active; Potency, µM (titrated, usually from 115 µM), without a hit: at the top dose activity change, negative = inhibition, usual class: inhibitors; Q99816; AID 493005; Fluorescence polarization, FITC-PTAP peptide / Tsg101 binding; active = well fitted inhibition curve with a large enough effect in the main read-out, with a control signal flat, not every such curve was filed as active; inconclusive = small, poorly fitted or top-dose-only effect, or effect the other way, or a change in a side signal; inactive = no such curve, though single readings can be large or run the other way; note: potency is the fitted concentration of half-maximal effect; % of control where 0% means no effect
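Fluorescence polarization binding of Tsg101 binding domain (10 uM final) to FITC-labeled PTAP peptide (50 nM final) in HEPES pH 7.5 buffer with NaCl, Tween 20, EDTA, TCEP. Compounds added before peptide; binding 20 min at RT.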
GRP78 ERSR act = inducers of ER stress response in human glioma cells; Potency, µM, inactives show at the highest dose activation, hits mostly activators; 420,000 tested, 0.02% active; U87-MG GRP78 promoter luciferase reporter, 16 h; note: potency is the fitted concentration of half-maximal effect; series mostly up to about 76 µM; % of control where 0% means no effect; nearly all actives have a fitted effect of over 35% in size
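ERSR induction read as luciferase luminescence (Bright-Glo, 10 min at room temperature) in stably transfected human U87-MG glioma cells exposed to compounds for 16 h, using GRP78 as sensor.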
An asterisk follows results filed as active; ? = inconclusive; / = not tested or not shown. This is a sample that favours compounds with a hit; in the whole collection about 2.1% have one here. Unless noted, calls come from the whole dose curve; as a rule, active = well fitted curve in the direction sought with a large enough effect; inconclusive = small, poorly fitted or top-dose-only effect, or another doubt; inactive = no such curve, though single readings can be large; an effect the other way counts as inactive or inconclusive.

Screens in order – A549 tox	Nrf2 block	Nrf2 ARE act	miR-21 FLuc	TSG101-PTAP inh	GRP78 ERSR act
> CCc1ccc(NC(=O)c2sc3nc(C)c(Cl)c(C)c3c2NC(=O)c2ccccc2OC)cc1
    8%	4%	-1%	-13%	/	0%
> CCc1ccc(NC(=O)c2sc3nc(C)c(Cl)c(C)c3c2N)cc1
    3%	3.7µM*	-1%	-46%	/	1%
> COc1cc(-c2ccc(Cl)cn2)cc2c1OCCN(S(=O)(=O)C[C@]13CC[C@H](CC1=O)C3(C)C)C2
    /	/	/	/	/	-2%
> Cc1ccc([N+](=O)[O-])cc1-c1ccc(/C=N/NC(=O)CN2CCOCC2)o1
    8%	-14%	13µM*	-8%	2%	-2%
> CC(C)(C)[C@H]1CCC(=O)N(CCSc2ccc(Br)cc2)CC1
    /	/	/	/	/	12%
> COc1ccc(-c2csc(NC(=O)c3ccccc3NS(=O)(=O)c3ccc(C)cc3)n2)cc1
    ?	16µM*	6%	30%	-6%	1%
> COc1ccc(-c2csc(NC(=O)C3=NN(c4ccccc4)C(=O)CC3)n2)cc1
    ?	21µM*	-1%	?	0%	-6%
> O=C(Nc1nc(-c2cc(F)ccc2F)cs1)C1=NN(c2ccccc2)C(=O)CC1
    -1%	8%	11%	0%	0%	1%
> Cc1ccc(C(=O)Nc2cc(Cl)ccc2-n2cncn2)o1
    0%	18%	7%	/	-11%	0%
> COc1ccc(C)cc1NC(=O)c1cc2ccccn2n1
    4%	-21%	18%	-50%	/	4%

4 entries out of the list, ordered by length of the SMILES, ascending:
Screens in order – A549 tox	Nrf2 block	Nrf2 ARE act	miR-21 FLuc	TSG101-PTAP inh	GRP78 ERSR act
> COc1ccc(C)cc1NC(=O)c1cc2ccccn2n1
    4%	-21%	18%	-50%	/	4%
> Cc1ccc([N+](=O)[O-])cc1-c1ccc(/C=N/NC(=O)CN2CCOCC2)o1
    8%	-14%	13µM*	-8%	2%	-2%
> COc1ccc(-c2csc(NC(=O)c3ccccc3NS(=O)(=O)c3ccc(C)cc3)n2)cc1
    ?	16µM*	6%	30%	-6%	1%
> COc1cc(-c2ccc(Cl)cn2)cc2c1OCCN(S(=O)(=O)C[C@]13CC[C@H](CC1=O)C3(C)C)C2
    /	/	/	/	/	-2%

Additional compounds follow:
Screens in order – A549 tox	Nrf2 block	Nrf2 ARE act	miR-21 FLuc	TSG101-PTAP inh	GRP78 ERSR act
> O=C(Nc1cc(Cl)ccc1-n1cncn1)c1ccco1
    2%	1%	10µM*	/	-3%	-4%
> COc1ccc(Cl)cc1NC(=O)c1cc2ccccn2n1
    13%	?	5.6µM*	-44%	/	-1%
> COc1ccc(Cl)cc1NC(=O)c1ccco1
    1%	/	5µM*	2%	-3%	-4%
> CCOc1ccc(CCNC(=O)c2cc3ccccn3n2)cc1OCC
    -7%	21µM*	2%	7%	-2%	-3%
> O=C(NC1CCC(n2cc(C(=O)NC3CC3)nn2)CC1)C(=O)c1ccccc1 (stereo not given)
    /	/	/	/	/	-3%
> Cc1ccc(C(C)C)c(OCC(=O)Nc2cccc(NC(=O)c3ccco3)c2)c1
    4%	-12%	-3%	21%	/	-3%
> COc1ccc(NC(=O)c2ccco2)cc1NC(=O)COc1cc(C)ccc1C(C)C
    -19%	18µM*	-1%	9%	/	-3%
> CCC1CN(Cc2cccn2-c2ccccn2)Cc2cc(OC)ccc2O1 (stereo not given)
    /	/	/	/	/	3%
> Cc1nc2ccn(Cc3ccco3)c(=O)c2cc1C(=O)Nc1ccc(F)cc1
    5%	-14%	13µM*	17%	/	-4%
> Cc1ccc(NC(=O)c2cc3c(=O)n(Cc4ccco4)ccc3nc2C)cc1C
    15%	?	22%	15%	/	-2%

Screens in order – A549 tox	Nrf2 block	Nrf2 ARE act	miR-21 FLuc	TSG101-PTAP inh	GRP78 ERSR act
> COc1ccc(C(=O)NCCc2nnc3n2CCN(CC2CC=CCC2)CC3)cc1 (stereo not given)
    /	/	/	/	/	-5%
> C=CCNC(=O)/C(C#N)=C/c1c(N(Cc2ccccc2)Cc2ccccc2)nc2ccccn2c1=O
    ?	26µM*	1%	?	7%	0%
> N#C/C(=C\c1c(N(Cc2ccccc2)Cc2ccccc2)nc2ccccn2c1=O)C(N)=O
    -20%	-8%	1%	17%	-1%	-2%
> C=C[C@H](CC(C)C)N(Cc1ccccc1)S(=O)(=O)N(Cc1ccccc1)[C@H](C=C)CC(C)C
    /	/	/	/	/	-4%
> COC(=O)C(=Cc1ccc(OCc2ccc([N+](=O)[O-])cc2)c(OC)c1)C(=O)OC
    ?	?	8.9µM*	-40%	-2%	?
> CCOC(=O)C(=Cc1ccc(OCc2ccc([N+](=O)[O-])cc2)c(OC)c1)C(=O)OCC
    ?	?	?	-37%	-2%	-3%
> Cc1ccc(NCCC(=O)c2cccs2)cc1C
    3%	?	22µM*	-50%	0%	-2%
